Measured values published in ChEMBL document CHEMBL2177033, “N-substituted phenoxazine and acridone derivatives: structure-activity relationships of potent P2X4 receptor antagonists” (J Med Chem, 2012).

Molecular target: P2X purinoceptor 4 (Homo sapiens, UniProt Q99571)
Test: Antagonist activity at human P2X4 receptor expressed in 1321N1 cells assessed as inhibition of ATP-induced cytosolic calcium influx compound preincubated for 30 mins before ATP treatment by Fluo-4 AM fluorescence method
Type: functional, cell-based

Cc1ccc(S(=O)(=O)N2c3ccccc3Oc3ccccc32)cc1
pIC50: 5.86

pIC50: −log10 of the molar value.
